Results taken from patent US20230365568A1, “PLK1 POLO BOX DOMAIN INHIBITORS AND METHOD OF TREATING CANCER” (The United States of America,as represented by the …, priority 2020, published 2023).

Assay: in vivo
Conditions: male, C57BL/6, mouse, serum, ip, 20 mg/kg

## CCCn1c(=O)c2cccc(F)c2n2c(SC)nnc12 [compound 145, 9-fluoro-1-(methylthio)-4-propyl-[1,2,4]triazolo[4,3-a]quinazolin-5(4H)-one]
  half-life: 51.3 ± 11.2 min
